Membrane permeability of cyclic peptides

PAMPA measures passive passage through an artificial lipid membrane.
Permeability is given as log10 of P in cm/s; higher (less negative) is more permeable.

- CC(=O)N1CCC[C@H]1C(=O)N(C)[C@@H](CC(C)C)C(=O)N[C@@H]1C(=O)N[C@H](CC(C)C)C(=O)N[C@@H](CC(C)C)C(=O)N(C)[C@@H](CC(C)C)C(=O)N(C)[C@H](C)C(=O)N[C@H](CC(C)C)C(=O)N2CCC[C@H]2C(=O)O[C@@H]1C: PAMPA -5.78 (log10 cm/s)
- CC(=O)N1CCC[C@H]1C(=O)N(C)[C@H](CC(C)C)C(=O)N[C@@H]1C(=O)N[C@@H](CC(C)C)C(=O)N(C)[C@H](CC(C)C)C(=O)N[C@H](CC(C)C)C(=O)N(C)[C@@H](C)C(=O)N[C@H](CC(C)C)C(=O)N2CCC[C@@H]2C(=O)O[C@@H]1C: PAMPA -5.92 (log10 cm/s)
- CC(=O)N1CCC[C@H]1C(=O)N(C)[C@@H](CC(C)C)C(=O)N[C@@H]1C(=O)N[C@H](CC(C)C)C(=O)N(C)[C@H](CC(C)C)C(=O)N(C)[C@@H](CC(C)C)C(=O)N(C)[C@H](C)C(=O)N[C@@H](CC(C)C)C(=O)N2CCC[C@H]2C(=O)O[C@@H]1C: PAMPA -5.46 (log10 cm/s)
- CC(=O)N1CCC[C@H]1C(=O)N(C)[C@H](CC(C)C)C(=O)N[C@@H]1C(=O)N(C)[C@@H](CC(C)C)C(=O)N(C)[C@@H](CC(C)C)C(=O)N[C@@H](CC(C)C)C(=O)N[C@@H](C)C(=O)N[C@H](CC(C)C)C(=O)N2CCC[C@H]2C(=O)O[C@@H]1C: PAMPA -6.72 (log10 cm/s)
- CC(=O)N1CCC[C@H]1C(=O)N(C)[C@H](CC(C)C)C(=O)N[C@@H]1C(=O)N[C@@H](CC(C)C)C(=O)N(C)[C@H](CC(C)C)C(=O)N[C@@H](CC(C)C)C(=O)N(C)[C@H](C)C(=O)N[C@@H](CC(C)C)C(=O)N2CCC[C@H]2C(=O)O[C@@H]1C: PAMPA -5.89 (log10 cm/s)
- CC(=O)N1CCC[C@H]1C(=O)N[C@@H]1C(=O)N(C)[C@H](CC(C)C)C(=O)N(C)[C@@H](CC(C)C)C(=O)N(C)[C@@H](CC(C)C)C(=O)N(C)[C@H](CC(C)C)C(=O)N(C)[C@H](C)C(=O)N[C@@H](CC(C)C)C(=O)N2CCC[C@@H]2C(=O)O[C@@H]1C: PAMPA -5.22 (log10 cm/s)
- CC(=O)N1CCC[C@H]1C(=O)N(C)[C@@H](CC(C)C)C(=O)N[C@@H]1C(=O)N[C@@H](CC(C)C)C(=O)N(C)[C@@H](CC(C)C)C(=O)N(C)[C@@H](CC(C)C)C(=O)N(C)[C@H](C)C(=O)N[C@@H](CC(C)C)C(=O)N2CCC[C@H]2C(=O)O[C@@H]1C: PAMPA -6.06 (log10 cm/s)
- CC(=O)N1CCC[C@@H]1C(=O)N(C)[C@@H](CC(C)C)C(=O)N[C@@H]1C(=O)N[C@H](CC(C)C)C(=O)N[C@H](CC(C)C)C(=O)N[C@@H](CC(C)C)C(=O)N(C)[C@H](C)C(=O)N[C@H](CC(C)C)C(=O)N2CCC[C@H]2C(=O)O[C@@H]1C: PAMPA -5.99 (log10 cm/s)
- CC(=O)N1CCC[C@H]1C(=O)N(C)[C@H](CC(C)C)C(=O)N[C@@H]1C(=O)N[C@H](CC(C)C)C(=O)N[C@H](CC(C)C)C(=O)N[C@@H](CC(C)C)C(=O)N[C@@H](C)C(=O)N[C@H](CC(C)C)C(=O)N2CCC[C@H]2C(=O)O[C@@H]1C: PAMPA -6.57 (log10 cm/s)
- CC(=O)N1CCC[C@@H]1C(=O)N(C)[C@H](CC(C)C)C(=O)N[C@@H]1C(=O)N(C)[C@@H](CC(C)C)C(=O)N[C@H](CC(C)C)C(=O)N[C@H](CC(C)C)C(=O)N(C)[C@H](C)C(=O)N[C@H](CC(C)C)C(=O)N2CCC[C@H]2C(=O)O[C@@H]1C: PAMPA -6.22 (log10 cm/s)
- CC(=O)N1CCC[C@@H]1C(=O)N(C)[C@H](CC(C)C)C(=O)N[C@@H]1C(=O)N[C@H](CC(C)C)C(=O)N[C@H](CC(C)C)C(=O)N[C@H](CC(C)C)C(=O)N(C)[C@H](C)C(=O)N[C@@H](CC(C)C)C(=O)N2CCC[C@H]2C(=O)O[C@@H]1C: PAMPA -6.38 (log10 cm/s)
- CC(=O)N1CCC[C@H]1C(=O)N(C)[C@@H](CC(C)C)C(=O)N[C@@H]1C(=O)N(C)[C@H](CC(C)C)C(=O)N[C@@H](CC(C)C)C(=O)N(C)[C@@H](CC(C)C)C(=O)N(C)[C@@H](C)C(=O)N[C@H](CC(C)C)C(=O)N2CCC[C@@H]2C(=O)O[C@@H]1C: PAMPA -6.24 (log10 cm/s)
- CC(=O)N1CCC[C@@H]1C(=O)N(C)[C@@H](CC(C)C)C(=O)N[C@@H]1C(=O)N(C)[C@@H](CC(C)C)C(=O)N(C)[C@H](CC(C)C)C(=O)N(C)[C@H](CC(C)C)C(=O)N(C)[C@@H](C)C(=O)N[C@@H](CC(C)C)C(=O)N2CCC[C@@H]2C(=O)O[C@@H]1C: PAMPA -5.42 (log10 cm/s)
- CC(=O)N1CCC[C@H]1C(=O)N(C)[C@H](CC(C)C)C(=O)N[C@@H]1C(=O)N[C@@H](CC(C)C)C(=O)N(C)[C@H](CC(C)C)C(=O)N(C)[C@H](CC(C)C)C(=O)N(C)[C@@H](C)C(=O)N[C@@H](CC(C)C)C(=O)N2CCC[C@@H]2C(=O)O[C@@H]1C: PAMPA -5.49 (log10 cm/s)
- CC(=O)N1CCC[C@H]1C(=O)N(C)[C@H](CC(C)C)C(=O)N[C@@H]1C(=O)N[C@H](CC(C)C)C(=O)N[C@H](CC(C)C)C(=O)N[C@H](CC(C)C)C(=O)N(C)[C@H](C)C(=O)N[C@@H](CC(C)C)C(=O)N2CCC[C@@H]2C(=O)O[C@@H]1C: PAMPA -5.73 (log10 cm/s)
- CC(=O)N1CCC[C@H]1C(=O)N(C)[C@H](CC(C)C)C(=O)N[C@@H]1C(=O)N[C@H](CC(C)C)C(=O)N[C@H](CC(C)C)C(=O)N[C@@H](CC(C)C)C(=O)N(C)[C@@H](C)C(=O)N[C@H](CC(C)C)C(=O)N2CCC[C@H]2C(=O)O[C@@H]1C: PAMPA -5.53 (log10 cm/s)
- CC(=O)N1CCC[C@@H]1C(=O)N(C)[C@H](CC(C)C)C(=O)N[C@@H]1C(=O)N[C@H](CC(C)C)C(=O)N(C)[C@H](CC(C)C)C(=O)N[C@H](CC(C)C)C(=O)N(C)[C@@H](C)C(=O)N[C@H](CC(C)C)C(=O)N2CCC[C@H]2C(=O)O[C@@H]1C: PAMPA -5.06 (log10 cm/s)
- CC(=O)N1CCC[C@H]1C(=O)N(C)[C@@H](CC(C)C)C(=O)N[C@@H]1C(=O)N(C)[C@@H](CC(C)C)C(=O)N(C)[C@@H](CC(C)C)C(=O)N(C)[C@@H](CC(C)C)C(=O)N(C)[C@H](C)C(=O)N[C@@H](CC(C)C)C(=O)N2CCC[C@H]2C(=O)O[C@@H]1C: PAMPA -5.31 (log10 cm/s)

The last 2 entries again:

- CC(=O)N1CCC[C@@H]1C(=O)N(C)[C@H](CC(C)C)C(=O)N[C@@H]1C(=O)N[C@H](CC(C)C)C(=O)N(C)[C@H](CC(C)C)C(=O)N[C@H](CC(C)C)C(=O)N(C)[C@@H](C)C(=O)N[C@H](CC(C)C)C(=O)N2CCC[C@H]2C(=O)O[C@@H]1C: PAMPA -5.06 (log10 cm/s)
- CC(=O)N1CCC[C@H]1C(=O)N(C)[C@@H](CC(C)C)C(=O)N[C@@H]1C(=O)N(C)[C@@H](CC(C)C)C(=O)N(C)[C@@H](CC(C)C)C(=O)N(C)[C@@H](CC(C)C)C(=O)N(C)[C@H](C)C(=O)N[C@@H](CC(C)C)C(=O)N2CCC[C@H]2C(=O)O[C@@H]1C: PAMPA -5.31 (log10 cm/s)

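The data file gives no further conditions (lipid, pH, time, direction or concentration), and values from different papers need not be comparable. The list need not hold all peptides of the study. Peptides that the database sets to -10, its floor, are left out.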

Data: CycPeptMPDB; original report Kelly et al. 2021, doi:10.1021/jacs.0c06115.